Key:
[1] = system: viruses in water surrounding coral nubbins; test: Viral abundance and viral enrichment in seawater surrounding coral nubbins (microcosm incubation); settings: ratio of viral abundances, end vs start of incubation
[2] = system: prokaryotes in water surrounding coral nubbins; test: Prokaryotic (bacterial) abundance and enrichment in seawater surrounding coral nubbins (microcosm incubation); settings: incubation 12 h; seawater surrounding Acropora sp. nubbins

Bacterial abundance (total bacterial number, TBN) [2]	Compound	Viral enrichment factor (VEF) [1]
	CO[C@@]12[C@H](COC(N)=O)C3=C(C(=O)C(C)=C(N)C3=O)N1C[C@@H]1N[C@@H]12 [MITO, Mitomycin C, reference compound]	14.33
1.18E+06	Cc1c(C)c2c(c(C)c1O)CC[C@@](C)(CCC[C@H](C)CCC[C@H](C)CCCC(C)C)O2 [System D16, Alpha-tocopherol]	
